For this assay, the target named is TRAP1 enzyme (Homo sapiens, UniProt Q12931). Put plainly: ADP Glo assay of TRAP1 ATPase activity. On the procedure:
Potency of test compounds to modulate the ATPase activity of TRAP1 enzyme was evaluated using ADP Glo assay. The assay is based on quantification of the ADP generated from ATP in the ATPase reaction. The assay is performed in two steps; first, after the ATPase reaction an equal volume of ADP-Glo™ Reagent is added to terminate the ATPase reaction and deplete the remaining ATP. Second, the Kinase Detection Reagent is added to simultaneously convert ADP to ATP and allow the newly synthesized ATP to be measured using a luciferase/luciferin reaction.
All the assays were carried out in a 384-well Proxiplate. The buffer used was 25 mM Pipes pH-7.5, 40 mM KCl, 0.05 mM MgCl2, 0.025% BSA, 0.316 mM EGTA, 0.003% Empigen, 0.01% Igepal. 150 nM Trap1 enzyme was incubated with various concentrations of the test compound (0.79 μM-100 μM) at 37° C. for 30 mins (except in blank wells). 20 μM ATP was added to each well to start the reaction. The plate was spun for 1 min at 1200 rpm and then incubated at 37° C. for 60 mins. 5 μl of ADP Glo reagent was added to all the wells and spun the plate for 1 min at 1200 rpm and kept it on a shaker at ambient temperature for 60 mins. 10 μl of kinase detection mix was added to all the wells and the plate was read for Luminescence at 495 nm. The amount of ADP released was estimated from ATP/ADP standard curve generated at the same experimental conditions. […]
On the technique in general: In ADP-Glo the light output rises with the ADP produced.

Protein sequences, listed by entry. Tags and fused reporters are not part of them. Residues count along the entry.
UniProt Q12931, 60-704 limits assumed: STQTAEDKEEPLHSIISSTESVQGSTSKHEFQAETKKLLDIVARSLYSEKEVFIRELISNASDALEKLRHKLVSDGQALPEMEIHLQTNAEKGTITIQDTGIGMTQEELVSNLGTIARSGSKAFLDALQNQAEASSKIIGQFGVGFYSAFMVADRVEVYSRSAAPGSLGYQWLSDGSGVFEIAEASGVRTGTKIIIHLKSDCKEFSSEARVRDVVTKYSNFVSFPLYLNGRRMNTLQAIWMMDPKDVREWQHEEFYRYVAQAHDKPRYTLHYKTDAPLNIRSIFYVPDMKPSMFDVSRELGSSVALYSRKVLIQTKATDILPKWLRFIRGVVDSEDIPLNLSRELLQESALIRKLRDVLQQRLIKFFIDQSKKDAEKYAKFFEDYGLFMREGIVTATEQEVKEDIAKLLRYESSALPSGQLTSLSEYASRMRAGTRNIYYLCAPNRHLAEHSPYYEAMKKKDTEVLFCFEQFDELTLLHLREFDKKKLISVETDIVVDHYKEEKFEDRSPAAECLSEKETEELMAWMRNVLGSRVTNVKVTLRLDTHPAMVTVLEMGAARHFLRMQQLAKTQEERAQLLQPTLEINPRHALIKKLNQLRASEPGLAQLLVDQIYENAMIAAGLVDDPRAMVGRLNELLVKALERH

Usually EC50 stands for the concentration at which the effect is half-maximal. On to `COc1ncc(NC(=O)c2c3c(nn2C)CCC3)cc1S(=O)(=O)Nc1ccc(Cl)cc1`, for which the “ADP GLO DRC: Mean Emax” value (maximal percent activation) is “C (“C” refers to 160-199%, inclusive)”. Besides, under “read-out: ADP GLO DRC: GeoMean EC50, concentration for half maximal activation”, the EC50 fell in the range of 10 to 20 µM.

The values above are taken from patent US20230159509A1 (Amathus Therapeutics, Inc., priority 2020, published 2023).
